In the library only some 0.44% were active in any assay of this set; here they are far more common.
Lamin A splicing: modulators of lamin A splicing | HeLa LMNA splicing GFP/RFP minigene ratio, 48 h | Potency, µM (doses to about 46.1 µM), for inactives: top-dose ratio change, negative = inhibition, hits mostly inhibitors | 0.01% of 200,000 active; active = well fitted inhibition curve with a large enough effect in the signal ratio, with a control signal flat, not every such curve was filed as active; inconclusive = small, poorly fitted or top-dose-only effect, or effect the other way, or a change in a side signal; the % refers to the signal ratio; note: % is set by controls: 0 for no effect and ±100 for the full control effect
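Read-out is the ratio of GFP to DsRed2 object intensity, acquired by 488 nm laser-scanning cytometry on HeLa lamin A-EGFP minigene reporter cells. Compound incubation 48 hrs at 37 °C in Opti-MEM with 2% FBS; DMSO 0.5% final.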
Rango complex inh: prevents formation of the Rango-importin beta complex; Q14974; Rango CFP/YFP FRET sensor + importin beta, 45 min; Potency, µM (highest dose often 92.2 µM), for the others: at the highest dose inhibition of complex formation; 0.031% of 340,000 active; AID 540263;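 note: 0% = DMSO wells and 100% = buffer wells lacking importin beta; nearly all actives have a fitted effect of over 15% in size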
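FRET biosensor Rango (snurportin 1 IBB between N-terminal EYFP and C-terminal Cerulean), 50 nM in PBS/1 mM DTT/0.02% Tween-20/0.1% BSA, preincubated 5 min RT with compound; 0.125 microM importin beta added, 45 min RT, CFP/YFP FRET ratio read.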
Rango release inh: inhibition of RanGTP-driven Rango-importin beta dissociation; O95149+P62826; Biochemical FRET Rango-importin beta, RanGTP-induced dissociation; Potency, µM (highest dose often 46.1 µM), for the others: at the top dose activity change, negative = inhibition; 0.071% of 340,000 active; AID 540253; note: % of control where 0% means no effect; nearly all actives have a fitted effect of over 45% in size
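Recombinant Rango FRET biosensor (EYFP–snurportin 1 IBB–cerulean CFP10) at 0.1 uM premixed with 0.25 uM importin beta in PBS, 1 mM DTT, 0.02% Tween-20, 0.1% BSA. Compound added 5 min; RanGTP-RCC1 (0.6 uM Ran, 2 mM GTP, 0.2 uM RCC1) then triggers release, read at 45 min.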
KinaseGlo FLuc: Kinase-Glo luciferase inhibition (counter-screen) | 0.28% of 200,000 active | Q27757 | AID 1379 | Potency, µM (highest dose often 38.3 µM), without a hit: at the highest dose activity change, negative = inhibition, usual class: inhibitors | Kinase-Glo luciferase, ATP luminescence, 8 min; active = well fitted curve in the direction sought with a large enough effect; inconclusive = small, poorly fitted or top-dose-only effect, or another doubt; inactive = no such curve, though single readings can be large; an effect the other way counts as inactive or inconclusive; note: % is set by controls: 0 for no effect and ±100 for the full control effect; nearly all actives have a fitted effect of over 60% in size
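Compound is pinned into ATP-containing buffer (10 uM ATP, imidazole pH 7.2, 7 mM MgCl2). Kinase-Glo luciferase reagent is then added. Light output is recorded following an 8-min room-temperature incubation.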
Tb PFK block: blocks T. brucei phosphofructokinase; O15648; T. brucei PFK, ADP-Glo luminescence; Potency, µM (top dose mostly 57.5 µM), for inactives: top-dose activity, negative = inhibition, hits mostly inhibitors; 0.17% of 330,000 active; AID 485367; active = well fitted curve in the direction sought with a large enough effect; inconclusive = small, poorly fitted or top-dose-only effect, or another doubt; inactive = no such curve, though single readings can be large; an effect the other way counts as inactive or inconclusive;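 note: 0% = uninhibited 1x PFK enzyme wells and -100% = no-enzyme wells; nearly all actives have a fitted effect of over 60% in size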
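In TEA buffer at pH 8.0 with 5 mM MgCl2, enzyme (1.25 nM) converted F6P (0.5 mM) and ATP (0.1 mM) for 45 min at room temperature. ADP product was read by luciferase luminescence.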
BCR signal inh: blocks chronic active B-cell receptor signaling | ABC-DLBCL IkBa-CBG/CBR reporter, luminescence ratio, 4 h | Potency, µM (titrated, usually from 46.1 µM), inactives show top-dose activity change, negative = inhibition, hits mostly inhibitors | 0.05% of 340,000 active; active = well fitted inhibition curve with a large enough effect in the signal ratio, with a control signal flat, not every such curve was filed as active; inconclusive = small, poorly fitted or top-dose-only effect, or effect the other way, or a change in a side signal; the % refers to the signal ratio;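 note: plate controls were basal doxycycline-induced cells for no effect and cells given 10 µM MG132 for full effect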
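TMD8 human ABC-DLBCL cells with doxycycline-inducible IκBα–green luciferase fusion and unfused red luciferase, in 0.5% FBS medium; compounds up to 46 uM, 4 h at 37C. Green/red luminescence ratio, filter-overlap corrected, fitted to concentration-response curves.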
An asterisk follows results filed as active; ? = inconclusive; . = no result; [ ] = another dose, or the depositor's remark. Unless noted, calls come from the whole dose curve. Potency is the fitted concentration of half-maximal effect.

1	Cc1cc2ncn(/N=C/c3ccc([N+](=O)[O-])o3)c2cc1C
2	Cn1ccnc1SCC(=O)c1ccc(O)cc1
3	Cn1ccnc1SCC(=O)c1ccc(Cl)cc1
4	COc1ccc(NC(=S)Nc2cccc(C)n2)cc1
5	Cc1ccc(/C=C2\Sc3ccccc3C2=O)s1
6	COc1cc(/C=N/NC(=O)c2nonc2C)ccc1O
7	Cc1nonc1C(=O)N/N=C/c1ccc(O)c(O)c1
8	O=C(Oc1cc2oc(=O)c3c(c2cc1Cl)CCCC3)c1cccs1
9	CN(C)S(=O)(=O)c1cccc(NC(=O)COc2ccc(C(=O)c3ccccc3)cc2)c1
10	c1ccc2c(NCCc3c[nH]c4ccccc34)c3ccccc3nc2c1
Compound,1,2,3,4,5,6,7,8,9,10
Lamin A splicing,?,.,.,.,7%[0.0737 µM],.,-11%,-9%,.,.
Rango complex inh,58µM*,-2%,-2%,5%,?,-4%,-2%,?,-2%,?
Rango release inh,0%,-2%,17%,8%,2.9µM*,4%,28%,8.2µM*[inhibitor],23%,15µM*[inhibitor]
KinaseGlo FLuc,0%,.,-25%,.,-30%,-14%,6.3µM*,1%,.,.
Tb PFK block,0%,0%,-16%,0%,-4%,2%,-12%,14%,1%,-2%
BCR signal inh,?,-3%,18µM*,?,?,?,?,7%,-9%,0%

11	Fc1cccc(NCCc2c[nH]c3ccccc23)n1
12	O=C(Nc1cccc(C(F)(F)F)c1)C1CCN(S(=O)(=O)c2cnc[nH]2)CC1
13	CCC(C)C(=O)OC1CCC=C2C=CC(C)C(CCC3CC(O)CC(=O)O3)C21 (stereo not drawn)
14	COc1ccc(O)c(C(=O)c2cnn(-c3ccccc3)c2)c1
15	COc1ccc(-n2cc(C(=O)c3ccccc3O)cn2)cc1
16	CCN(CC)S(=O)(=O)c1ccc2c(c1)N(CC(=O)NCc1ccco1)C(=O)CO2
17	O=C(CCSc1nc(-c2ccco2)cc(C(F)(F)F)n1)NCC1CCCO1 (stereo not drawn)
18	O=C(CCCSc1nc(-c2ccco2)cc(C(F)(F)F)n1)NCC1CCCO1 (stereo not drawn)
19	COc1ccc(NC(=O)CCc2nnc3ccc(N4CCC(C)CC4)nn23)cc1
20	O=C(CCCCCN1C(=O)c2ccccc2C1=O)NC1CCCC1
Compound,11,12,13,14,15,16,17,18,19,20
Lamin A splicing,.,-12%,.,.,.,.,22%,-11%,.,-4%
Rango complex inh,-4%,0%,5%,-2%,1%,-5%,?,-4%,0%,6%
Rango release inh,17%,-11%,0%,-6%,0%,14%,26µM*,10%,9%,-3%
KinaseGlo FLuc,.,-1%,.,.,10µM*,.,-12%,-3%,.,-2%
Tb PFK block,-9%,0%,.,-1%,-7%,0%,2%,-1%,4%,0%
BCR signal inh,-3%,8%,.,?,?,0%,2%,-3%,-5%,9%

21	CN(C)c1ccc(C(=C2C=CC(=[N+](C)C)C=C2)c2ccc(N(C)C)cc2)cc1
22	CN(C)c1ccc(C(=C2C=CC(=[N+](C)C)C=C2)c2ccccc2)cc1
23	CC(C)=CCC(C)(C)/C=N/NC(N)=O
24	Cc1cccc(Cn2c(=O)n(-c3ccc(CC(=O)NCc4ccco4)cc3)c(=O)c3sccc32)c1
25	Cc1ccc(-n2c(=O)c3sccc3n(CC(=O)NCc3ccco3)c2=O)cc1
26	CCc1ccccc1NC(=O)Cn1c(=O)n(-c2ccc(CC(=O)NCC3CCCO3)cc2)c(=O)c2ccccc21 (stereo not drawn)
27	O=C(Cc1ccc(-n2c(=O)c3ccccc3n(Cc3ccccc3F)c2=O)cc1)NCC1CCCO1 (stereo not drawn)
28	O=C(Cc1ccc(-n2c(=O)c3ccccc3n(Cc3ccccc3Cl)c2=O)cc1)NCC1CCCO1 (stereo not drawn)
29	O=C(Cc1ccc(-n2c(=O)c3ccccc3n(Cc3ccc(F)cc3)c2=O)cc1)NCC1CCCO1 (stereo not drawn)
30	Cc1c(N2C(=O)/C(=C\c3ccc(N(C)C)cc3)N(C)C2=S)c(=O)n(-c2ccccc2)n1C
Compound,21,22,23,24,25,26,27,28,29,30
Lamin A splicing,.,?,.,18%,3%,-3%[46 µM],4%,?,3%,-10%
Rango complex inh,.,.,-1%,-5%,-4%,-3%,3%,?,0%,52µM*
Rango release inh,.,.,28%,21%,10%,1%,-18%,-10%,15%,1%
KinaseGlo FLuc,5µM*,-1%[7.66 µM],.,5%,0%,-2%,2%,0%,1%,-5%
Tb PFK block,.,.,0%,0%,0%,-5%,0%,-2%,5%,-7%
BCR signal inh,.,.,2%,5µM*,-2%,-1%,?,2.8µM*,8.2µM*,?

Exported as labelled records: 4 of the compounds above
#7 Cc1nonc1C(=O)N/N=C/c1ccc(O)c(O)c1
  Lamin A splicing = -11% | Rango complex inh = -2% | Rango release inh = 28% | KinaseGlo FLuc = 6.3µM* | Tb PFK block = -12% | BCR signal inh = ?

#5 Cc1ccc(/C=C2\Sc3ccccc3C2=O)s1
  Lamin A splicing = 7%[0.0737 µM] | Rango complex inh = ? | Rango release inh = 2.9µM* | KinaseGlo FLuc = -30% | Tb PFK block = -4% | BCR signal inh = ?

#29 O=C(Cc1ccc(-n2c(=O)c3ccccc3n(Cc3ccc(F)cc3)c2=O)cc1)NCC1CCCO1 (stereo not drawn)
  Lamin A splicing = 3% | Rango complex inh = 0% | Rango release inh = 15% | KinaseGlo FLuc = 1% | Tb PFK block = 5% | BCR signal inh = 8.2µM*

#23 CC(C)=CCC(C)(C)/C=N/NC(N)=O
  Lamin A splicing = . | Rango complex inh = -1% | Rango release inh = 28% | KinaseGlo FLuc = . | Tb PFK block = 0% | BCR signal inh = 2%

Next results follow.
31	O=[N+]([O-])c1ccc(O)c(/C=N/NC(=S)Nc2ccc(Cl)cc2Cl)c1
32	CC(N=C1NS(=O)(=O)c2ccccc21)c1ccccc1 (stereo not drawn)
33	COc1cc(NC(=O)c2cccs2)c(OC)cc1NC(=O)c1cccs1
34	COc1cc(NC(=O)c2cccs2)c(OC)cc1NC(=O)Cc1ccccc1
35	CSc1ccc(/C=C/C(=O)Nc2ccccc2)cc1
36	Cc1ccc(-n2nnc3c(=O)n(CC(=O)c4ccccc4)cnc32)cc1
37	O=C(/C=C\c1ccccc1OC(=O)c1ccccc1F)c1cc2ccccc2o1
38	CC(=O)/C=C\c1ccccc1OC(=O)c1cc2ccccc2oc1=O
39	N#CC(C#N)=c1ccc2c(c1)NC1(CCCCC1)N=2
40	COc1ccccc1NC(=O)C(C)n1cnc2c(oc3nc4c(cc32)CCCC4)c1=O (stereo not drawn)
Compound,31,32,33,34,35,36,37,38,39,40
Lamin A splicing,.,8%,.,.,.,-11%,?,.,?,.
Rango complex inh,?,-5%,?,0%,-1%,3%,4%,2%,-5%,-1%
Rango release inh,-20%,-11%,18µM*,-12%,11%,1%,-6%,36%,-20%,-5%
KinaseGlo FLuc,.,-1%,.,.,13µM*,-2%,-2%,.,13µM*,.
Tb PFK block,0%,-4%,.,3%,-9%,0%,1%,-7%,?,0%
BCR signal inh,?,4%,.,12%,?,-2%,13µM*,0%,5%,5%

41	O=C1NC(=S)N/C1=C\c1ccc(N2CCOCC2)cc1
42	COc1cccc(C2c3c(oc4ccc(F)cc4c3=O)C(=O)N2CCCN2CCOCC2)c1 (stereo not drawn)
43	O=C(NC(=S)Nc1ccc(CN2CCOCC2)cc1)c1ccco1
44	O=C(Nc1ccc(C(=O)N2CCCC2)cc1)c1ccc2c(c1)OCO2
45	O=C(Nc1ccccc1)Nc1ccc(C(=O)N2CCCC2)cc1
46	O=C(c1ccc2c(c1)OCO2)N1CCCC1
Compound,41,42,43,44,45,46
Lamin A splicing,.,0%,.,3%,.,3%
Rango complex inh,?,-2%,3%,-2%,?,4%
Rango release inh,8.2µM*,-21%,-5%,-2%,18%,3%
KinaseGlo FLuc,-7%,0%,.,13µM*,6.3µM*,-2%
Tb PFK block,2%,0%,4%,2%,-22%,-4%
BCR signal inh,?,0%,2%,18%,0%,-1%

Screening data from PubChem BioAssay.
